Test results reported in patent US20110269812A1, “NOVEL BENZYLIDENE-INDOLINONE AND THEIR MEDICAL AND DIAGNOSTIC USES” (Agency for Science, Technology and Research, priority 2008, published 2011).

test system: NQO1; assay: Induction of NQO1 (QR) activity in Hepa1c1c7 cells; details: concentration for a 2-fold increase in NQO1 activity vs untreated Hepa1c1c7 cells; 48 h; mean and SD, n = 3

SMILES	QR Induction of Hepa1c1c cells CD
O=c1cc(-c2ccccc2)oc2ccc3ccccc3c12 [BNF, β-naphthoflavone, reference compound]	0.028 (±0.003) μM
COc1cccc(/C=C2/C(=O)Nc3cc(F)ccc32)c1 [Compound 39, (E)-6-Fluoro-3-(3-methoxybenzylidene)indolin-2-one]	0.17 ± 0.05 µM
COc1cccc(/C=C2/C(=O)Nc3ccc(Cl)cc32)c1 [Compound 40, (E)-5-Chloro-3-(3-methoxybenzylidene)indolin-2-one]	0.36 ± 0.06 µM
COc1cccc(/C=C2/C(=O)Nc3cc(Cl)ccc32)c1 [Compound 41, (E)-6-Chloro-3-(3-methoxybenzylidene)indolin-2-one]	0.039 ± 0.01 µM
COc1cccc(/C=C2/C(=O)Nc3cc(OC)ccc32)c1 [Compound 42, (E)-6-Methoxy-3-(3-methoxybenzylidene)indolin-2-one]	0.13 ± 0.05 µM
COc1ccc(/C=C2/C(=O)Nc3cc(F)ccc32)cc1O [Compound 43, (E)-6-Fluoro-3-(3-hydroxy-4-methoxybenzylidene)indolin-2-one]	0.11 ± 0.05 µM
COc1ccc(/C=C2/C(=O)Nc3cc(Cl)ccc32)cc1O [Compound 44, (E)-6-Chloro-3-(3-hydroxy-4-methoxybenzylidene)indolin-2-one]	0.076 ± 0.01 µM
COc1ccc2c(c1)NC(=O)/C2=C/c1ccc(OC)c(O)c1 [Compound 45, (E)-3-(3-Hydroxy-4-methoxybenzylidene)-6-methoxyindolin-2-one]	0.24 ± 0.08 µM
O=C1Nc2cc(F)ccc2/C1=C\c1cccc(C(F)(F)F)c1 [Compound 46, (E)-6-Fluoro-3-(3-(trifluoromethyl)benzylidene)indolin-2-one]	0.016 ± 0.007 µM
O=C1Nc2cc(Cl)ccc2/C1=C\c1cccc(C(F)(F)F)c1 [Compound 47, (E)-6-Chloro-3-(3-(trifluoromethyl)benzylidene)indolin-2-one]	0.0041 ± 0.0009 µM
COc1ccc2c(c1)NC(=O)/C2=C/c1cccc(C(F)(F)F)c1 [Compound 48, (E)-6-Methoxy-3-(3-(trifluoromethyl)benzylidene)indolin-2-one]	0.085 ± 0.014 µM
C[S+]([O-])CCCCN=C=S (stereo not drawn) [sulforaphane, reference compound]	0.26 (±0.04) μM
